The molecules below were run against Nociceptin receptor (Homo sapiens, UniProt P41146) (assay: Human Nociceptin/Orphanin FQ Peptide (hNOP) Receptor Binding Assay).

Protein sequences, listed by entry. Tags and fused reporters are not part of them. Lines headed by an entry give the natural chain unless they say otherwise; changes in a name come on top.
UniProt P41146: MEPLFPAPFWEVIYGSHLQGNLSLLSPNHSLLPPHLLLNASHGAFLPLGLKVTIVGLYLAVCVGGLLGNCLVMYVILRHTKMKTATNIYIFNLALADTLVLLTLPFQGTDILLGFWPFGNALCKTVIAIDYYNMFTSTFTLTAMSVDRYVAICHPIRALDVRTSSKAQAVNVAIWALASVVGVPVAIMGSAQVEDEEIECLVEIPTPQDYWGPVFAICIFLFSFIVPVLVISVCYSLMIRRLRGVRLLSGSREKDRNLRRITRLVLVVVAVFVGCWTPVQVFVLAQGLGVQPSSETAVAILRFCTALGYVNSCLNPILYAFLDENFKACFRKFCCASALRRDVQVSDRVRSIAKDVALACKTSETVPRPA
UniProt P35372, whole entry, looked up: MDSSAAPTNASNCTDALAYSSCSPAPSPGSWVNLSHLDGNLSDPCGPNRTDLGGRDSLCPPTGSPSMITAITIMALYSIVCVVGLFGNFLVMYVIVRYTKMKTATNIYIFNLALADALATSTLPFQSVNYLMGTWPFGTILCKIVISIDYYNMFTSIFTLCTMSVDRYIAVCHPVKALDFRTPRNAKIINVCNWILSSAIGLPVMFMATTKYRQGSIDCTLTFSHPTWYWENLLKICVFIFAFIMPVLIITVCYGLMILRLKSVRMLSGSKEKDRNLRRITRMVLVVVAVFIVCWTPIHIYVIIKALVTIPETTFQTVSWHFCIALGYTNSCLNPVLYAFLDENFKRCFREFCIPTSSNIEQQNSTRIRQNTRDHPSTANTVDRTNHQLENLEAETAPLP

Row | SMILES | Ki
1 | CN(C)[C@]1(c2ccccc2)CC[C@]2(CC1)CN(c1cnc(-n3cc(C4CC4)nn3)nc1)C(=O)N2 | 10 nM
2 | Cc1cc(C(F)(F)F)ncc1N1C[C@]2(CC[C@](c3ccccc3)(N(C)C)CC2)N(CC2CCC2)C1=O | 7 nM
3 | CCN(C)[C@]1(c2ccccc2)CC[C@]2(CC1)CN(c1cnc(C#N)nc1OC)C(=O)N2CC1CCC1 | 6.2 nM
4 | CN(C)[C@]1(c2ccccc2)CC[C@]2(CC1)CN(c1cnc(N3CCN(S(C)(=O)=O)CC3)nc1)C(=O)N2 | 4 nM
5 | CN(C)[C@]1(c2ccccc2)CC[C@]2(CC1)CN(c1cnc(NC(=O)C3CC3)nc1)C(=O)N2 | 28 nM
6 | CN(C)C(=O)c1ccc(N2C[C@]3(CC[C@](c4ccccc4)(N(C)C)CC3)N(CC3CCC3)C2=O)cc1 | 0.6 nM
7 | CN(C)[C@]1(c2ccccc2)CC[C@]2(CC1)CN(c1cnc(NCCO)nc1)C(=O)N2 | 33 nM
8 | CN(C)[C@]1(c2ccccc2)CC[C@]2(CC1)CN(c1cnc(N3CCOCC3)nc1)C(=O)N2CC1(O)CCC1 | 17 nM
9 | CN(C)[C@]1(c2ccccc2)CC[C@]2(CC1)CN(c1cccc3c1CC(=O)N3)C(=O)N2 | 44 nM
10 | CN(C)[C@]1(c2ccccc2)CC[C@]2(CC1)CN(c1cccc3nc(O)oc13)C(=O)N2 | 37 nM
11 | CN(C)[C@]1(c2ccccc2)CC[C@]2(CC1)CN(c1cnc(-c3ccccc3C#N)nc1)C(=O)N2 | 4 nM
12 | Cn1nc(C(F)(F)F)cc1N1C[C@]2(CC[C@](c3cccc(F)c3)(N(C)C)CC2)NC1=O | 4 nM
13 | CN(C)[C@]1(c2ccccc2)CC[C@]2(CC1)CN(c1ccc(S(C)(=O)=O)cc1C#N)C(=O)N2CC1CCC1 | 0.6 nM
14 | Cc1cc(C(F)(F)F)ncc1N1C[C@]2(CC[C@](c3cccc(O)c3)(N(C)C)CC2)NC1=O | 29 nM
15 | CN[C@]1(c2ccccc2)CC[C@]2(CC1)CN(c1ccccc1C#N)C(=O)N2CC1(O)CCC1 | 36 nM
16 | CN(C)[C@]1(c2ccccc2)CC[C@]2(CC1)CN(c1cnc(C#N)nc1)C(=O)N2CC1(O)CCC1 | 1.4 nM
17 | CN(C)[C@]1(c2ccccc2)CC[C@]2(CC1)CN(c1ncc(C(N)=O)cn1)C(=O)N2CC1CCC1 | 4.2 nM
18 | CN(C)[C@]1(c2ccccc2)CC[C@]2(CC1)CN(c1cnc(N)nc1)C(=O)N2 | 35 nM
19 | CN(C)[C@]1(c2ccccc2)CC[C@]2(CC1)CN(c1cnc(-c3cccc(C#N)c3)nc1)C(=O)N2 | 13 nM
20 | CN(C)[C@]1(c2ccccc2)CC[C@]2(CC1)CN(c1cnc(-c3ccc(C(N)=O)cc3)nc1)C(=O)N2 | 2 nM
21 | CN(C)[C@]1(c2ccccc2)CC[C@]2(CC1)CN(c1ncc(C#N)cn1)C(=O)N2CC1CCC1 | 0.8 nM
22 | CN(C)[C@]1(c2ccccc2)CC[C@]2(CC1)CN(c1cnc(N3CCNCC3)nc1)C(=O)N2CC1(O)CCC1 | 1 nM
23 | CN(C)[C@]1(c2ccccc2)CC[C@]2(CC1)CN(c1cnc(-n3ncc4ccccc43)nc1)C(=O)N2 | 10 nM
24 | CN(C)[C@]1(c2ccccc2)CC[C@]2(CC1)CN(c1cnc(C(=O)N3CCNCC3)nc1)C(=O)N2 | 10 nM
25 | CN(C)[C@]1(c2ccccc2)CC[C@]2(CC1)CN(c1ccc(S(C)(=O)=O)nc1)C(=O)N2CC1CC1 | 2 nM
26 | CN(C)[C@]1(c2ccccc2)CC[C@]2(CC1)CN(c1cnc(N3CCNC(=O)C3)nc1)C(=O)N2 | 26 nM

These molecules were tested against Mu-type opioid receptor (Homo sapiens, UniProt P35372) (assay: Human Mu-Opioid Peptide (hMOP) Receptor Binding Assay).

Row | SMILES | Ki
27 | CCN(CCO)C(=O)c1ccc(N2C[C@]3(CC[C@](c4ccccc4)(N(C)C)CC3)N(CC3CCC3)C2=O)cc1 | 7.3 nM
28 | Cc1cc(-c2ccccn2)ncc1N1C[C@]2(CC[C@](c3ccccc3)(N(C)C)CC2)NC1=O | 1580 nM
29 | Cc1cc(C(F)(F)F)ncc1N1C[C@]2(CC[C@](c3ccccc3)(N(C)C)CC2)N(CC2CCC2)C1=O | 1 nM
30 | CN(C)[C@]1(c2ccccc2)CC[C@]2(CC1)CN(c1cccc(C(F)(F)F)c1)C(=O)N2 | 2440 nM
31 | CN(C)[C@]1(c2ccccc2)CC[C@]2(CC1)CN(c1cnc(-c3ccc(C#N)cc3)nc1)C(=O)N2 | 3750 nM
32 | CN1CCN(c2ncc(N3C[C@]4(CC[C@](c5ccccc5)(N(C)C)CC4)N(CC4(O)CCC4)C3=O)cn2)CC1 | 6 nM
33 | CN[C@]1(c2ccccc2)CC[C@]2(CC1)CN(c1ccc(C#N)cc1OC)C(=O)N2CC1CCC1 | 96 nM
34 | CN(C)[C@]1(c2ccccc2)CC[C@]2(CC1)CN(c1cnc(C(N)=O)nc1)C(=O)N2CC1(O)CCC1 | 4.4 nM
35 | CN(C)[C@]1(c2cccs2)CC[C@]2(CC1)CN(c1ccccc1CS(C)(=O)=O)C(=O)N2 | 1240 nM
36 | CN(C)[C@]1(c2cccc(F)c2)CC[C@]2(CC1)CN(c1ccccc1CS(C)(=O)=O)C(=O)N2 | 6600 nM
37 | COc1cc(C#N)ccc1N1C[C@]2(CC[C@](c3ccccc3)(N(C)C)CC2)N(CC2CCC2)C1=O | 90.5 nM
38 | CN(C)[C@]1(c2ccccc2)CC[C@]2(CC1)CN(c1cnc(N3CCC3)c(C(F)(F)F)c1)C(=O)N2 | 1970 nM
39 | COCCN1C(=O)N(c2ccnc(C#N)n2)C[C@]12CC[C@](c1ccccc1)(N(C)C)CC2 | 63 nM
40 | CN(C)[C@]1(c2ccccc2)CC[C@]2(CC1)CN(c1ccc(C(F)(F)F)cc1F)C(=O)N2 | 6700 nM
41 | CN(C)[C@]1(c2ccccc2)CC[C@]2(CC1)CN(c1cnc(-c3cccc4c3CC(=O)N4)cc1C#N)C(=O)N2 | 1240 nM
42 | CN[C@]1(c2ccccc2)CC[C@]2(CC1)CN(c1cnc(N3CCN(C)CC3)nc1)C(=O)N2CC1(O)CCC1 | 3 nM
43 | CN[C@]1(c2ccccc2)CC[C@]2(CC1)CN(c1ccc(C#N)cc1OC)C(=O)N2CC1(O)CCC1 | 26 nM
44 | CN(C)[C@]1(c2ccccc2)CC[C@]2(CC1)CN(c1ccc(C(N)=O)cc1)C(=O)N2CC1(O)CCC1 | 50.5 nM
45 | CN(C)[C@]1(c2ccccc2)CC[C@]2(CC1)CN(c1ccccc1C(N)=O)C(=O)N2CC1(O)CCC1 | 26 nM

Row | SMILES | Ki
46 | Cc1cc(C(N)=O)cnc1N1C[C@]2(CC[C@](c3ccccc3)(N(C)C)CC2)NC1=O | 5100 nM
47 | CN(C)C(=O)CN1C(=O)N(c2ccnc(C#N)n2)C[C@]12CC[C@](c1ccccc1)(N(C)C)CC2 | 28 nM
48 | Cc1cc(C(F)(F)F)ncc1N1C[C@]2(CC[C@](c3nc4ccccc4n3C)(N(C)C)CC2)NC1=O | 24000 nM
49 | Cc1cnccc1N1C[C@]2(CC[C@](c3ccccc3)(N(C)C)CC2)NC1=O | 4780 nM
50 | CN(C)[C@]1(c2ccccc2)CC[C@]2(CC1)CN(c1cnc(NC3CCOCC3)nc1)C(=O)N2 | 5490 nM
51 | CN(C)[C@]1(c2ccccc2)CC[C@]2(CC1)CN(c1cnc(N3CCOCC3)cc1C#N)C(=O)N2 | 4780 nM
52 | CN(C)[C@]1(c2ccccc2)CC[C@]2(CC1)CN(c1ccc3c(c1)NCC3)C(=O)N2 | 1680 nM
53 | CN(C)[C@]1(c2ccccc2)CC[C@]2(CC1)CN(c1ccccc1C#N)C(=O)N2CC1CCC1 | 67 nM
54 | COc1nc(C#N)ncc1N1C[C@]2(CC[C@](c3ccccc3)(N(C)C)CC2)N(CC2CCC2)C1=O | 350 nM
55 | CN(C)[C@]1(c2ccccc2)CC[C@]2(CC1)CN(c1ccc(F)c(C#N)c1)C(=O)N2CC1CCC1 | 770 nM
56 | CN(C)[C@]1(c2ccccc2)CC[C@]2(CC1)CN(c1cnc(C#N)nc1)C(=O)N2CC1CC1 | 290 nM
57 | Cc1cc(N2CCNC(=O)C2)ncc1N1C[C@]2(CC[C@](c3ccccc3)(N(C)C)CC2)NC1=O | 2060 nM
58 | CN(C)[C@]1(c2ccccc2)CC[C@]2(CC1)CN(c1cnc(NC(=O)c3ccccc3)nc1)C(=O)N2 | 5900 nM
59 | CN(C)[C@]1(c2ccccc2)CC[C@]2(CC1)CN(c1ccc(C#N)cc1F)C(=O)N2 | 3500 nM
60 | CCN(C)[C@]1(c2ccccc2)CC[C@]2(CC1)CN(c1cnc(C(F)(F)F)nc1)C(=O)N2CC1CCC1 | 730 nM
61 | CN(C)[C@]1(c2ccccc2)CC[C@]2(CC1)CN(c1cccc(C#N)c1)C(=O)N2CC1CCC1 | 235 nM
62 | CN[C@]1(c2ccccc2)CC[C@]2(CC1)CN(c1ccc(S(C)(=O)=O)cc1)C(=O)N2CC1CC1 | 165 nM
63 | CN(C)[C@]1(c2ccccc2)CC[C@]2(CC1)CN(c1cncnc1)C(=O)N2CC1(O)CCC1 | 63 nM
64 | CN[C@]1(c2ccccc2)CC[C@]2(CC1)CN(c1cnc(N3CCNCC3)nc1)C(=O)N2CC1(O)CCC1 | 1 nM

Row | SMILES | Ki
65 | CN(C)[C@]1(c2ccccc2)CC[C@]2(CC1)CN(c1ncc(C#N)cn1)C(=O)N2CC1CCC1 | 29.5 nM
66 | COCCN1C(=O)N(c2ncc(C#N)cn2)C[C@]12CC[C@](c1ccccc1)(N(C)C)CC2 | 29.5 nM
67 | CN(C)S(=O)(=O)c1ccc(N2C[C@]3(CC[C@](c4ccccc4)(N(C)C)CC3)N(CC3CCC3)C2=O)c(C(F)(F)F)c1 | 235 nM
68 | CN(C)[C@]1(c2ccccc2)CC[C@]2(CC1)CN(c1cnc(N3CCNCC3)nc1)C(=O)N2CC1(O)CCC1 | 1 nM
69 | CN(C)[C@]1(c2ccccc2)CC[C@]2(CC1)CN(c1cnc(O)nc1)C(=O)N2CC1(O)CCC1 | 36 nM
70 | CN[C@]1(c2ccccc2)CC[C@]2(CC1)CN(c1ccc(C(F)(F)F)cc1S(C)(=O)=O)C(=O)N2CC1CCC1 | 45.5 nM
71 | CN[C@]1(c2ccccc2)CC[C@]2(CC1)CN(c1cnc(C#N)nc1)C(=O)N2CC1(O)CCC1 | 37 nM
72 | Cc1cc(C(F)(F)F)ncc1N1C[C@]2(CC[C@](c3ccccc3)(N(C)C)CC2)N(CC(=O)N(C)C)C1=O | 1970 nM
73 | CN(C)[C@]1(c2ccccc2)CC[C@]2(CC1)CN(c1cccc3[nH]ccc13)C(=O)N2 | 2200 nM
74 | CN(C)[C@]1(c2ccccc2)CC[C@]2(CC1)CN(c1ccc(-c3ccncc3)s1)C(=O)N2 | 1350 nM
75 | CN[C@]1(c2ccccc2)CC[C@]2(CC1)CN(c1cnc(C(F)(F)F)nc1)C(=O)N2CC1CCC1 | 76 nM
76 | COCCCN1C(=O)N(c2cnc(C#N)nc2)C[C@]12CC[C@](c1ccccc1)(N(C)C)CC2 | 135 nM
77 | CN(C)[C@]1(c2ccccc2)CC[C@]2(CC1)CN(c1cnc(S(C)(=O)=O)nc1C#N)C(=O)N2CC1CCC1 | 46 nM
78 | CN(C)[C@]1(c2ccccc2)CC[C@]2(CC1)CN(c1cc(S(C)(=O)=O)ccc1C#N)C(=O)N2CC1CCC1 | 99 nM
79 | CN(C)[C@]1(c2ccccc2)CC[C@]2(CC1)CN(c1ccc(S(C)(=O)=O)nc1)C(=O)N2CC1CC1 | 97 nM
80 | CN(C)[C@]1(c2ccccc2)CC[C@]2(CC1)CN(c1cnc(NCc3ccccc3)nc1)C(=O)N2 | 2540 nM
81 | CN(C)[C@]1(c2ccccc2)CC[C@]2(CC1)CN(c1cnc(C#N)nc1)C(=O)N2CC1(C#N)CCC1 | 79.5 nM
82 | CN(C)[C@]1(c2ccccc2)CC[C@]2(CC1)CN(c1ccccc1F)C(=O)N2 | 1620 nM

Source: BindingDB's records for US10807988
